Laboratory results: publication PMC12102759 (Protein Science : A Publication of the Protein Society, 2025)

Tested on: AP2M1 MU
Format: binding, human

QVVSDIDYVPLKSATA V3S (QVSSDIDYVPLKSATA)
PSSM value of the substitution (DMS by phage display): 0.00118

QVVSDIDYVPLKSATA V3K (QVKSDIDYVPLKSATA)
PSSM value of the substitution (DMS by phage display): 0

VSDIDYVPLKSATAIT T13Y (VSDIDYVPLKSAYAIT)
PSSM value of the substitution (DMS by phage display): 0.006401

VSDIDYVPLKSATAIT A12R (VSDIDYVPLKSRTAIT)
PSSM value of the substitution (DMS by phage display): 0

VSDIDYVPLKSATAIT A12I (VSDIDYVPLKSITAIT)
PSSM value of the substitution (DMS by phage display): 0

VSDIDYVPLKSATAIT Y6D (VSDIDDVPLKSATAIT)
PSSM value of the substitution (DMS by phage display): 0

VSDIDYVPLKSATA(averaged) T13R (VSDIDYVPLKSARA)
PSSM value of the substitution, averaged over the two overlapping peptides: 0.002792

VSDIDYVPLKSATAIT P8M (VSDIDYVMLKSATAIT)
PSSM value of the substitution (DMS by phage display): 0

QVVSDIDYVPLKSATA V2F (QFVSDIDYVPLKSATA)
PSSM value of the substitution (DMS by phage display): 0.4936

VSDIDYVPLKSATAIT S2Q (VQDIDYVPLKSATAIT)
PSSM value of the substitution (DMS by phage display): 0.006565

VSDIDYVPLKSATAIT S11T (VSDIDYVPLKTATAIT)
PSSM value of the substitution (DMS by phage display): 0

VSDIDYVPLKSATAIT T13H (VSDIDYVPLKSAHAIT)
PSSM value of the substitution (DMS by phage display): 0.02042

QVVSDIDYVPLKSATA V3G (QVGSDIDYVPLKSATA)
PSSM value of the substitution (DMS by phage display): 0.001029

VSDIDYVPLKSATAIT K10K
PSSM value of the substitution (DMS by phage display): 0.000843

VSDIDYVPLKSATA(averaged) T13K (VSDIDYVPLKSAKA)
PSSM value of the substitution, averaged over the two overlapping peptides: 0

VSDIDYVPLKSATAIT S11N (VSDIDYVPLKNATAIT)
PSSM value of the substitution (DMS by phage display): 0

QVVSDIDYVPLKSATA V9V
PSSM value of the substitution (DMS by phage display): 0.1095

VSDIDYVPLKSATA(averaged) A12W (VSDIDYVPLKSWTA)
PSSM value of the substitution, averaged over the two overlapping peptides: 0.05944

VSDIDYVPLKSATA(averaged) S11L (VSDIDYVPLKLATA)
PSSM value of the substitution, averaged over the two overlapping peptides: 0.001654

VSDIDYVPLKSATAIT Y6W (VSDIDWVPLKSATAIT)
PSSM value of the substitution (DMS by phage display): 0

QVVSDIDYVPLKSATA K12Q (QVVSDIDYVPLQSATA)
PSSM value of the substitution (DMS by phage display): 0.0001065

VSDIDYVPLKSATA(averaged) I4K (VSDKDYVPLKSATA)
PSSM value of the substitution, averaged over the two overlapping peptides: 0

QVVSDIDYVPLKSATA D5N (QVVSNIDYVPLKSATA)
PSSM value of the substitution (DMS by phage display): 0.06497

QVVSDIDYVPLKSATA K12A (QVVSDIDYVPLASATA)
PSSM value of the substitution (DMS by phage display): 0.0001947

QVVSDIDYVPLKSATA A16N (QVVSDIDYVPLKSATN)
PSSM value of the substitution (DMS by phage display): 0.0001031

QVVSDIDYVPLKSATA Y8E (QVVSDIDEVPLKSATA)
PSSM value of the substitution (DMS by phage display): 0

VSDIDYVPLKSATAIT V1T (TSDIDYVPLKSATAIT)
PSSM value of the substitution (DMS by phage display): 0.009093

VSDIDYVPLKSATAIT I15F (VSDIDYVPLKSATAFT)
PSSM value of the substitution (DMS by phage display): 0.01325

QVVSDIDYVPLKSATA D5I (QVVSIIDYVPLKSATA)
PSSM value of the substitution (DMS by phage display): 0

VSDIDYVPLKSATA(averaged) A14L (VSDIDYVPLKSATL)
PSSM value of the substitution, averaged over the two overlapping peptides: 0.01346

VSDIDYVPLKSATA(averaged) T13H (VSDIDYVPLKSAHA)
PSSM value of the substitution, averaged over the two overlapping peptides: 0.2618

QVVSDIDYVPLKSATA T15R (QVVSDIDYVPLKSARA)
PSSM value of the substitution (DMS by phage display): 0

VSDIDYVPLKSATA(averaged) I4R (VSDRDYVPLKSATA)
PSSM value of the substitution, averaged over the two overlapping peptides: 0

VSDIDYVPLKSATAIT V1K (KSDIDYVPLKSATAIT)
PSSM value of the substitution (DMS by phage display): 0.0003311

VSDIDYVPLKSATAIT P8V (VSDIDYVVLKSATAIT)
PSSM value of the substitution (DMS by phage display): 0.01908

VSDIDYVPLKSATAIT A12L (VSDIDYVPLKSLTAIT)
PSSM value of the substitution (DMS by phage display): 0.2466

QVVSDIDYVPLKSATA Y8N (QVVSDIDNVPLKSATA)
PSSM value of the substitution (DMS by phage display): 0

QVVSDIDYVPLKSATA I6S (QVVSDSDYVPLKSATA)
PSSM value of the substitution (DMS by phage display): 0.0001333

VSDIDYVPLKSATAIT Y6G (VSDIDGVPLKSATAIT)
PSSM value of the substitution (DMS by phage display): 0

VSDIDYVPLKSATA(averaged) A14N (VSDIDYVPLKSATN)
PSSM value of the substitution, averaged over the two overlapping peptides: 0.001075

VSDIDYVPLKSATA(averaged) S2W (VWDIDYVPLKSATA)
PSSM value of the substitution, averaged over the two overlapping peptides: 0.0006456

QVVSDIDYVPLKSATA A16G (QVVSDIDYVPLKSATG)
PSSM value of the substitution (DMS by phage display): 0.003233

VSDIDYVPLKSATA(averaged) T13T
PSSM value of the substitution, averaged over the two overlapping peptides: 0.0127

VSDIDYVPLKSATA(averaged) Y6A (VSDIDAVPLKSATA)
PSSM value of the substitution, averaged over the two overlapping peptides: 0

VSDIDYVPLKSATAIT V7A (VSDIDYAPLKSATAIT)
PSSM value of the substitution (DMS by phage display): 0

VSDIDYVPLKSATA(averaged) P8I (VSDIDYVILKSATA)
PSSM value of the substitution, averaged over the two overlapping peptides: 0.02132

VSDIDYVPLKSATA(averaged) V7Q (VSDIDYQPLKSATA)
PSSM value of the substitution, averaged over the two overlapping peptides: 0.001583

VSDIDYVPLKSATA(averaged) P8D (VSDIDYVDLKSATA)
PSSM value of the substitution, averaged over the two overlapping peptides: 0.0009116

QVVSDIDYVPLKSATA D7I (QVVSDIIYVPLKSATA)
PSSM value of the substitution (DMS by phage display): 0

VSDIDYVPLKSATA(averaged) V7S (VSDIDYSPLKSATA)
PSSM value of the substitution, averaged over the two overlapping peptides: 0

VSDIDYVPLKSATAIT P8P
PSSM value of the substitution (DMS by phage display): 0.005012

QVVSDIDYVPLKSATA V9P (QVVSDIDYPPLKSATA)
PSSM value of the substitution (DMS by phage display): 0

VSDIDYVPLKSATA(averaged) T13S (VSDIDYVPLKSASA)
PSSM value of the substitution, averaged over the two overlapping peptides: 0.03255

VSDIDYVPLKSATA(averaged) K10S (VSDIDYVPLSSATA)
PSSM value of the substitution, averaged over the two overlapping peptides: 0.4022

QVVSDIDYVPLKSATA P10A (QVVSDIDYVALKSATA)
PSSM value of the substitution (DMS by phage display): 0

VSDIDYVPLKSATA(averaged) I4H (VSDHDYVPLKSATA)
PSSM value of the substitution, averaged over the two overlapping peptides: 0.00125

VSDIDYVPLKSATAIT D3Q (VSQIDYVPLKSATAIT)
PSSM value of the substitution (DMS by phage display): 0

VSDIDYVPLKSATA(averaged) S2E (VEDIDYVPLKSATA)
PSSM value of the substitution, averaged over the two overlapping peptides: 0

QVVSDIDYVPLKSATA L11E (QVVSDIDYVPEKSATA)
PSSM value of the substitution (DMS by phage display): 0

VSDIDYVPLKSATAIT A14T (VSDIDYVPLKSATTIT)
PSSM value of the substitution (DMS by phage display): 0.6599

VSDIDYVPLKSATA(averaged) I4L (VSDLDYVPLKSATA)
PSSM value of the substitution, averaged over the two overlapping peptides: 0.001167

QVVSDIDYVPLKSATA Y8M (QVVSDIDMVPLKSATA)
PSSM value of the substitution (DMS by phage display): 0

VSDIDYVPLKSATAIT K10P (VSDIDYVPLPSATAIT)
PSSM value of the substitution (DMS by phage display): 0

QVVSDIDYVPLKSATA A14I (QVVSDIDYVPLKSITA)
PSSM value of the substitution (DMS by phage display): 0.4923

VSDIDYVPLKSATAIT S11Q (VSDIDYVPLKQATAIT)
PSSM value of the substitution (DMS by phage display): 0.9003

VSDIDYVPLKSATA(averaged) D3H (VSHIDYVPLKSATA)
PSSM value of the substitution, averaged over the two overlapping peptides: 0
